In US20200171133A1:

Legend:
[1] = target: cation-independent mannose-6-phosphate receptor (CIMPR); assay: CIMPR affinity chromatography (FIG. 5B)
[2] = target: cation-independent mannose-6-phosphate receptor (CIMPR); assay: CIMPR affinity chromatography of several production batches
[3] = target: cation-independent mannose-6-phosphate receptor (CIMPR); assay: M6P receptor (CIMPR) plate binding assay, bound rhGAA read by GAA activity
[4] = target: cation-independent mannose-6-phosphate receptor (CIMPR); assay: CIMPR affinity chromatography, M6P elution gradient, fractions read by GAA activity (4MU-α-glucose)

| percent of rhGAA bound to CIMPR column (contained M6P) [1] | CIMPR receptor binding, percent [2] | Kd [3] | percent of rhGAA bound to CIMPR column (eluted with M6P) [4] | percent of rhGAA that did not bind [4] | Substance |
| --- | --- | --- | --- | --- | --- |
| 70% | 70% | 2 to 4 nM |  |  | ATB200 rhGAA (recombinant human acid α-glucosidase produced in CHO cell line GA-ATB-200) (from UniProt P10253 57-952) (enzyme) |
|  |  |  | 27% | 73% | Myozyme® (alglucosidase alfa, conventional rhGAA, Genzyme) (from UniProt P10253 57-952) |
|  |  |  | 22% | 78% | Lumizyme® (alglucosidase alfa, conventional rhGAA, Genzyme) (from UniProt P10253 57-952) |
